CycPeptMPDB entries from one study

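Conditions beyond the assay type are not listed; see the original paper. The list need not hold all peptides of the study. Entries at the database's floor value (log10 P of -10) are not listed.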

PAMPA measures passive passage through an artificial lipid membrane. Values are log10 P with P in cm/s, so -5 is more permeable than -7.

structure (SMILES)	PAMPA (log10 cm/s)
CC(=O)N1CCC[C@H]1C(=O)N(C)[C@@H](CC(C)C)C(=O)N[C@@H]1C(=O)N(C)[C@@H](CC(C)C)C(=O)N(C)[C@H](CC(C)C)C(=O)N(C)[C@@H](CC(C)C)C(=O)N(C)[C@H](C)C(=O)N[C@@H](CC(C)C)C(=O)N2CCC[C@H]2C(=O)O[C@@H]1C	-5.54
CC(=O)N1CCC[C@H]1C(=O)N(C)[C@H](CC(C)C)C(=O)N[C@@H]1C(=O)N[C@H](CC(C)C)C(=O)N[C@H](CC(C)C)C(=O)N[C@H](CC(C)C)C(=O)N(C)[C@H](C)C(=O)N[C@H](CC(C)C)C(=O)N2CCC[C@@H]2C(=O)O[C@@H]1C	-6.39
CC(=O)N1CCC[C@@H]1C(=O)N(C)[C@@H](CC(C)C)C(=O)N[C@@H]1C(=O)N[C@@H](CC(C)C)C(=O)N(C)[C@H](CC(C)C)C(=O)N[C@H](CC(C)C)C(=O)N(C)[C@H](C)C(=O)N[C@H](CC(C)C)C(=O)N2CCC[C@@H]2C(=O)O[C@@H]1C	-5.80
CC(=O)N[C@@H]1C(=O)N2CCC[C@H]2C(=O)N(C)[C@H](CC(C)C)C(=O)N[C@H](CC(C)C)C(=O)N[C@H](CC(C)C)C(=O)N(C)[C@H](CC(C)C)C(=O)N(C)[C@H](C)C(=O)N[C@@H](CC(C)C)C(=O)N2CCC[C@@H]2C(=O)O[C@@H]1C	-6.09
CC(=O)N1CCC[C@H]1C(=O)N(C)[C@@H](CC(C)C)C(=O)N[C@@H]1C(=O)N[C@H](CC(C)C)C(=O)N[C@@H](CC(C)C)C(=O)N(C)[C@H](CC(C)C)C(=O)N(C)[C@@H](C)C(=O)N[C@@H](CC(C)C)C(=O)N2CCC[C@@H]2C(=O)O[C@@H]1C	-5.24
CC(=O)N1CCC[C@@H]1C(=O)N(C)[C@H](CC(C)C)C(=O)N[C@@H]1C(=O)N[C@H](CC(C)C)C(=O)N(C)[C@@H](CC(C)C)C(=O)N(C)[C@@H](CC(C)C)C(=O)N(C)[C@@H](C)C(=O)N[C@H](CC(C)C)C(=O)N2CCC[C@H]2C(=O)O[C@@H]1C	-5.84
CC(=O)N1CCC[C@H]1C(=O)N(C)[C@H](CC(C)C)C(=O)N[C@@H]1C(=O)N[C@H](CC(C)C)C(=O)N(C)[C@H](CC(C)C)C(=O)N(C)[C@@H](CC(C)C)C(=O)N[C@@H](C)C(=O)N[C@@H](CC(C)C)C(=O)N2CCC[C@@H]2C(=O)O[C@@H]1C	-5.89
CC(=O)N1CCC[C@H]1C(=O)N[C@@H]1C(=O)N[C@H](CC(C)C)C(=O)N[C@H](CC(C)C)C(=O)N[C@H](CC(C)C)C(=O)N(C)[C@H](CC(C)C)C(=O)N(C)[C@H](C)C(=O)N[C@@H](CC(C)C)C(=O)N2CCC[C@@H]2C(=O)O[C@@H]1C	-5.84
CC(=O)N1CCC[C@@H]1C(=O)N(C)[C@@H](CC(C)C)C(=O)N[C@@H]1C(=O)N[C@H](CC(C)C)C(=O)N(C)[C@H](CC(C)C)C(=O)N(C)[C@H](CC(C)C)C(=O)N[C@@H](C)C(=O)N[C@@H](CC(C)C)C(=O)N2CCC[C@H]2C(=O)O[C@@H]1C	-6.74
CC(=O)N1CCC[C@H]1C(=O)N(C)[C@@H](CC(C)C)C(=O)N[C@@H]1C(=O)N(C)[C@H](CC(C)C)C(=O)N(C)[C@@H](CC(C)C)C(=O)N(C)[C@H](CC(C)C)C(=O)N(C)[C@H](C)C(=O)N[C@@H](CC(C)C)C(=O)N2CCC[C@H]2C(=O)O[C@@H]1C	-5.24
CC(=O)N1CCC[C@H]1C(=O)N[C@@H]1C(=O)N[C@H](CC(C)C)C(=O)N[C@@H](CC(C)C)C(=O)N[C@H](CC(C)C)C(=O)N[C@H](CC(C)C)C(=O)N(C)[C@@H](C)C(=O)N[C@@H](CC(C)C)C(=O)N2CCC[C@@H]2C(=O)O[C@@H]1C	-5.18
CC(=O)N1CCC[C@H]1C(=O)N[C@@H]1C(=O)N[C@H](CC(C)C)C(=O)N(C)[C@H](CC(C)C)C(=O)N(C)[C@@H](CC(C)C)C(=O)N(C)[C@@H](CC(C)C)C(=O)N[C@@H](C)C(=O)N[C@@H](CC(C)C)C(=O)N2CCC[C@@H]2C(=O)O[C@@H]1C	-5.13
CC(=O)N1CCC[C@@H]1C(=O)N(C)[C@@H](CC(C)C)C(=O)N[C@@H]1C(=O)N[C@H](CC(C)C)C(=O)N(C)[C@H](CC(C)C)C(=O)N[C@H](CC(C)C)C(=O)N(C)[C@H](C)C(=O)N[C@@H](CC(C)C)C(=O)N2CCC[C@@H]2C(=O)O[C@@H]1C	-5.07
CC(=O)N1CCC[C@@H]1C(=O)N(C)[C@H](CC(C)C)C(=O)N[C@@H]1C(=O)N(C)[C@@H](CC(C)C)C(=O)N[C@@H](CC(C)C)C(=O)N[C@@H](CC(C)C)C(=O)N[C@@H](C)C(=O)N[C@H](CC(C)C)C(=O)N2CCC[C@@H]2C(=O)O[C@@H]1C	-8.70
CC(=O)N1CCC[C@H]1C(=O)N[C@@H]1C(=O)N[C@H](CC(C)C)C(=O)N(C)[C@H](CC(C)C)C(=O)N[C@H](CC(C)C)C(=O)N(C)[C@H](CC(C)C)C(=O)N(C)[C@@H](C)C(=O)N[C@@H](CC(C)C)C(=O)N2CCC[C@@H]2C(=O)O[C@@H]1C	-5.49
CC(=O)N1CCC[C@H]1C(=O)N(C)[C@@H](CC(C)C)C(=O)N[C@@H]1C(=O)N[C@@H](CC(C)C)C(=O)N(C)[C@H](CC(C)C)C(=O)N(C)[C@@H](CC(C)C)C(=O)N(C)[C@@H](C)C(=O)N[C@H](CC(C)C)C(=O)N2CCC[C@H]2C(=O)O[C@@H]1C	-5.58
CC(=O)N1CCC[C@@H]1C(=O)N(C)[C@@H](CC(C)C)C(=O)N[C@@H]1C(=O)N[C@@H](CC(C)C)C(=O)N[C@@H](CC(C)C)C(=O)N(C)[C@H](CC(C)C)C(=O)N[C@@H](C)C(=O)N[C@H](CC(C)C)C(=O)N2CCC[C@@H]2C(=O)O[C@@H]1C	-6.39

Excerpt, the opening 2 entries:

{"smiles": "CC(=O)N1CCC[C@H]1C(=O)N(C)[C@@H](CC(C)C)C(=O)N[C@@H]1C(=O)N(C)[C@@H](CC(C)C)C(=O)N(C)[C@H](CC(C)C)C(=O)N(C)[C@@H](CC(C)C)C(=O)N(C)[C@H](C)C(=O)N[C@@H](CC(C)C)C(=O)N2CCC[C@H]2C(=O)O[C@@H]1C", "PAMPA (log10 cm/s)": "-5.54"}
{"smiles": "CC(=O)N1CCC[C@H]1C(=O)N(C)[C@H](CC(C)C)C(=O)N[C@@H]1C(=O)N[C@H](CC(C)C)C(=O)N[C@H](CC(C)C)C(=O)N[C@H](CC(C)C)C(=O)N(C)[C@H](C)C(=O)N[C@H](CC(C)C)C(=O)N2CCC[C@@H]2C(=O)O[C@@H]1C", "PAMPA (log10 cm/s)": "-6.39"}

Data: CycPeptMPDB; original report Kelly et al. 2021, doi:10.1021/jacs.0c06115.